# Binding of CDR-mutated scFvs to a peptide of the spike HR2 region

Source: Engelhart et al. 2022 (doi:10.1038/s41597-022-01779-4), MIT Lincoln Laboratory and A-Alpha Bio; data file from the FLAb repository.

The target is the same throughout: PDVDLGDISGINAS, from the HR2 region of SARS-CoV-2 spike.

Parent scFv Ab-91: VL joined to VH by the linker GGGGSGGGGSGGGGS. Changes lie in the heavy chain CDRs alone.
VL: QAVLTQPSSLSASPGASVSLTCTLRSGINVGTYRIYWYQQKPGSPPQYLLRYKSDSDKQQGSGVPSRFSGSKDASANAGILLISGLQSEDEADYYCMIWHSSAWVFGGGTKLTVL
VH: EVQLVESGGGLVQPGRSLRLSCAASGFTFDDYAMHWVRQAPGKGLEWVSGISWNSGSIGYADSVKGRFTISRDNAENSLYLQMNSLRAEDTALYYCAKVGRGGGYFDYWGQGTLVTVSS

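The starting antibody came from a phage panning campaign against this peptide. Variants in AAYL51 differ from the parent at up to three CDR positions; double and triple changes were sampled at random. Affinity was read by AlphaSeq, a pooled yeast mating assay with surface-displayed partners. Mating (16 h, 30 °C) was followed by selection of diploids and sequencing of their barcodes. Scores were corrected for input abundance and mapped to Kd with protein pairs of known affinity run in the same pool. Each pool was mated in three replicate cultures.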

Changes read parent residue, position, new residue, counted from the first residue of the VH shown.
Numbers give log10(Kd / nM), so 0 is 1 nM and 3 is 1 µM. Smaller is tighter.
A mean of the replicates is given; it leaves out those without a signal.
A pair that was not seen in that replicate is written "ND"; this usually means weak binding, but a binder can also be missed.
Nonspecific signal, from three strains lacking the peptide, appeared in 21% of pairings of library AAYL51, centred on 4.54 (5% of these signals below 3.26); values are not corrected for it.

| changes | replicates, log10 nM | mean, log10 nM |
|---|---|---|
| D62R V64Y G100C | ND ND ND | ND |
| D30N H35S S57W | 4.57 ND 5.57 | 5.07 |
| A33L S57C A61Y | ND ND ND | ND |
| W53L S57I K65P | 4.27 ND 4.03 | 4.15 |
| G50K I51N | 5.63 ND ND | 5.63 |
| W53F N54M G104C | ND ND ND | ND |
| H35T G50L Y60A | 6.11 ND 3.77 | 4.94 |
| K65R Y108Q | ND ND ND | ND |
| G100F D107Y | ND ND ND | ND |
| A33M M34E G59V | 2.45 2.57 2.42 | 2.48 |
| N54D G56S A61Y | ND ND ND | ND |
| D30A N54I S57V | 2.40 3.87 ND | 3.13 |
| A33V I58P R101C | ND ND ND | ND |
| H35N D107Y Y108Q | ND ND ND | ND |
| F27D S57C G59K | ND ND ND | ND |
| F27Q T28M K65P | 4.01 5.59 ND | 4.80 |
| K65G G103T | 1.64 1.99 2.00 | 1.88 |
| G26N G59V V64Y | ND 5.94 5.23 | 5.58 |
| M34S S57H R101C | 3.50 ND ND | 3.50 |
| D30H W53C R101I | 3.69 ND 4.32 | 4.01 |
| D30Q K65W | 1.33 3.28 2.11 | 2.24 |
| Y32P M34T D107N | 5.32 6.77 ND | 6.04 |
| Y32L A33L G100D | ND ND ND | ND |
| F29D I58Q F106A | 5.80 ND 5.52 | 5.66 |
| Y32E I51F S55I | ND ND ND | ND |
| M34P V64A | 1.48 1.38 0.85 | 1.24 |
| S57F G59T G104R | 3.40 ND 3.91 | 3.66 |
| H35T N54G G104R | ND ND ND | ND |
| F27C D30F R101N | 3.67 ND ND | 3.67 |
| S52V N54I S57D | 6.13 5.31 5.77 | 5.74 |
| H35S G100Q R101K | ND ND ND | ND |
| G56S I58H F106M | 6.43 5.65 ND | 6.04 |

The last 2 entries again:

changes	replicates, log10 nM	mean, log10 nM
H35S G100Q R101K	ND ND ND	ND
G56S I58H F106M	6.43 5.65 ND	6.04